Molecules are shown by their SMILES. Where only a bound is given, the exact number is not on record here.

The chains behind the UniProt entries cited, without tags or fusion partners.
UniProt P21554, whole entry: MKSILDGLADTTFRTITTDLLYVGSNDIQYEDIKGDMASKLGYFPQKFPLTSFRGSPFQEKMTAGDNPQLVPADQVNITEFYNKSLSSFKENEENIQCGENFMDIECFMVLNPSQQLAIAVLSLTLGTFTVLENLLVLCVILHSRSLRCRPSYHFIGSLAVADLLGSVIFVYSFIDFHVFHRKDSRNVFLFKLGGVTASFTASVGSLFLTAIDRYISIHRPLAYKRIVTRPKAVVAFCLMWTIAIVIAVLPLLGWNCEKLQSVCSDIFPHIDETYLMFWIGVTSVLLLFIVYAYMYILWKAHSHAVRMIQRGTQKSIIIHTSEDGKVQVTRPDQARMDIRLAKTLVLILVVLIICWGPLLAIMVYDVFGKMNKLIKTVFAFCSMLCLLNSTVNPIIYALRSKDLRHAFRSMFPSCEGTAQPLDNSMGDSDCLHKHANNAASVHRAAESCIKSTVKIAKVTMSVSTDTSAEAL

By Emax is commonly meant the maximal effect, on the per cent scale that the assay sets.

In this experiment the target is Cannabinoid receptor 1 (Homo sapiens, UniProt P21554). Kind of experiment: Agonist activity at human CB1 receptor CP55940-stimulated calcium mobilization at 10 uM incubated for 15 mins FLIPR assay relative to control. It is filed as functional. The method in brief:
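Agonist screen in CHO-RD-HGA16 cells stably expressing hCB1, loaded with Calcium 5 dye for 45 min at 37 °C and pretreated with buffer vehicle. Test compound is added at a single 10 μM concentration by FLIPR Tetra. Fluorescence is read every 1 s for 90 s (ex/em 485/525 nm). RFU are expressed as % of CP55,940 Emax.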
Background: Calcium assays in cells follow changes in intracellular calcium, usually with a dye or a luminescent sensor.
`O=C(NCCc1ccccc1)Nc1ccc(Cl)cc1`: the maximum response (Emax) was below 30%. Then `O=C(NCCc1cccc(Br)c1)Nc1ccc(Cl)cc1`, with below 30%; and `O=C(NCCc1cc(Cl)cc(Cl)c1)Nc1ccc(Cl)cc1`, with below 30%; and `N#Cc1cccc(CCNC(=O)Nc2ccc(Cl)cc2)c1`, with below 30%. Then `O=C(NCCc1ccc(N2CCCCC2)cc1)Nc1ccc(Cl)cc1`, with below 30%; and `Cc1ccc(CCNC(=O)Nc2ccc(Cl)cc2)cc1C`, with below 30%. Then `O=C(NCCc1cccc(OC(F)(F)F)c1)Nc1ccc(Cl)cc1`, with below 30%. Turning to `Cc1cc(C)cc(CCNC(=O)Nc2ccc(Cl)cc2)c1`, the Emax was below 30%.

Source of the values: ChEMBL document CHEMBL5042498, “Development of 3-(4-Chlorophenyl)-1-(phenethyl)urea Analogues as Allosteric Modulators of the Cannabinoid Type-1 Receptor: RTICBM-189 is Brain Penetrant and Attenuates Reinstatement of Cocaine-Seeking Behavior” (J Med Chem, 2022).
